## Experimental melting point values from OPERA 2.9

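OPERA's authors assembled the values from existing databases and did not measure them anew. One number stands for a compound and property, with no spread given. Method, purity and exact conditions of the single measurements are not given. The measured form (salt, isomer or mixture) is not always the one drawn. Unmarked limits or estimates from the upstream databases cannot be ruled out.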

Melting points are in °C.

compound	melting point (°C)
ON=Cc1ccc2c(c1)OCO2	115
COc1ccc2c3c1O[C@H]1[C@@H](O[C@@H]4O[C@H](C(=O)O)[C@@H](O)[C@H](O)[C@H]4O)C=C[C@H]4[C@@H](C2)N(C)CC[C@@]341	249
O=C1N=C(O)C2(CCCCCCC2)C(O)=N1	228
O=c1c2ccccc2[nH]c(=S)n1-c1ccc(Cl)cc1	337
O=C1NC(=O)C2(CC2)C(=O)N1	325
COS(=O)(=O)[O-].C[N+]1(C)CCCC1COC(=O)C(O)(c1ccccc1)c1ccccc1 (stereo unspecified)	154
C#C[C@@]1(O)CC[C@@H]2[C@H]3CC=C4C=C(OCC)CC[C@H]4[C@@H]3CC[C@]21C	182.8
Cn1cccc1C(=O)CCl	35
Cc1cc(Cc2cc(C)c(OCC3CO3)c(C)c2)cc(C)c1OCC1CO1 (stereo unspecified)	60.85
CCCC1COC(Cn2cncn2)(c2ccc(Cl)cc2Cl)O1 (stereo unspecified)	1
O=S(=O)(CCCl)CCCl	56
O=C([O-])C(F)(F)OC1(F)OC(F)(F)OC1(F)OC(F)(F)F.[NH4+] (stereo unspecified)	64.62
CCCCCCCCCCCCOP(=S)([S-])OCCCCCCCCCCCC.CCCCCCCCCCCCOP(=S)([S-])OCCCCCCCCCCCC.[Zn+2]	-17
Cc1ccccc1NC(=O)CCl	76
O=C(NCNC(=O)NC1C(=O)NC(=O)N1CO)NC1C(=O)NC(=O)N1CO (stereo unspecified)	240.2
Brc1ccc(Br)c(-c2cc(Br)ccc2Br)c1	143
CCOC(=O)CCSP(=S)(OC(C)C)OC(C)C	-89
CCCOc1nn(C(=O)[N-]S(=O)(=O)c2ccccc2C(=O)OC)c(=O)n1C.[Na+]	230
COC(=O)C1=CCCN(C)C1.Cl	158
CCOP(=S)(OCC)Oc1ccc2c(C)cc(=O)oc2c1	38
Cc1ccccc1-n1c(Cl)nc2ccccc2c1=O	299
CCc1cccc(C)c1NC(=O)CCl	105
O=S(=O)(Cl)c1ccc(CBr)cc1	73.5
CCCCCCC1(CC)C(=O)NC(=O)NC1=O	125
CN(C)C(=O)c1cc2cnc(Cl)nc2n1C1CCCC1	88
C(#CCN1CCCC1)CN1CCCC1.Cl.Cl	237
N#Cc1cccc(CCl)c1	68.5
OCC1CN2CCN1CC2 (stereo unspecified)	44
COc1cc2c(c3oc4cccc(O)c4c(=O)c13)C1C=COC1O2 (stereo unspecified)	246
CC(C)=CCC1(C(C)(C)C)C(O)=NC(=O)N=C1O	212
Clc1ccc(-c2ccccc2)cc1Cl	50
O=C(CCl)NCc1ccco1	82
C#C[C@@]1(OC(C)=O)CC[C@@H]2[C@H]3CC=C4C=C(OCC)CC[C@H]4[C@@H]3CC[C@]21C	181.2
C[C@]12C[C@H]3O[C@H]3C[C@@H]1CC[C@@H]1[C@@H]2CC[C@]2(C)[C@@H](O)[C@@H](N3CCCC3)C[C@@H]12	129.5
CC1CCCC(C)N1C(=O)CCl (stereo unspecified)	72
CC(C)(c1cc(Br)c(OCC2CO2)c(Br)c1)c1cc(Br)c(OCC2CO2)c(Br)c1 (stereo unspecified)	114.1
Clc1cc(Cl)c2c(c1)Oc1c(Cl)cc(Cl)cc1O2	219
O=Cc1cnn(Cc2ccccc2)c1	44
Cl.ClCc1cccnc1	142.5
c1cnc2[nH]cc(C3CCNCC3)c2c1	160
BrCc1ccccc1I	55.5
C(CCOCC1CO1)COCC1CO1 (stereo unspecified)	-21.5
Cc1ccc(C(O)CN)cc1 (stereo unspecified)	71
Cn1c(=O)c2ncnnc2n(C)c1=O	178
CC(c1ccc(C(F)(F)F)nc1)S(C)(=O)=NC#N (stereo unspecified)	112
COc1ccc2cccc(CCN)c2c1.Cl	216.1
ClCc1nc(-c2ccco2)no1	83
CCCCCCCC/C=C\CCCCCCCC(=O)N(C)CC(=O)[O-].CCCCCCCC/C=C\CCCCCCCC(=O)N(C)CC(=O)[O-].[Ca+2]	66.5
C[C@]12CCC(=O)C=C1CC[C@H]1[C@@H]3[C@@H](O)CC(=O)[C@@]3(C)CC[C@@H]12	195
Cc1ccc(S(=O)(=O)NCCCCCC(=O)O)cc1	112
CCOC(=O)c1c(C)n(C2CCCCC2)c2ccc(O)cc12	248
CCCC1(CCC)C(=O)NC(=O)NC1=O	146
CCOC(=O)N(C)C(=O)CSP(=S)(OCC)OCC	17

6 of these entries, quoted again:

compound	melting point (°C)
C[C@]12C[C@H]3O[C@H]3C[C@@H]1CC[C@@H]1[C@@H]2CC[C@]2(C)[C@@H](O)[C@@H](N3CCCC3)C[C@@H]12	129.5
Brc1ccc(Br)c(-c2cc(Br)ccc2Br)c1	143
CCc1cccc(C)c1NC(=O)CCl	105
CCCOc1nn(C(=O)[N-]S(=O)(=O)c2ccccc2C(=O)OC)c(=O)n1C.[Na+]	230
COc1cc2c(c3oc4cccc(O)c4c(=O)c13)C1C=COC1O2 (stereo unspecified)	246
Cl.ClCc1cccnc1	142.5

Data: OPERA 2.9 data sets, kmansouri/OPERA on GitHub.